# Target: Induced myeloid leukemia cell differentiation protein Mcl-1 (Homo sapiens, UniProt Q07820)
# Amino acid sequences for entries named in this document (tags omitted).
# UniProt Q07820, whole entry: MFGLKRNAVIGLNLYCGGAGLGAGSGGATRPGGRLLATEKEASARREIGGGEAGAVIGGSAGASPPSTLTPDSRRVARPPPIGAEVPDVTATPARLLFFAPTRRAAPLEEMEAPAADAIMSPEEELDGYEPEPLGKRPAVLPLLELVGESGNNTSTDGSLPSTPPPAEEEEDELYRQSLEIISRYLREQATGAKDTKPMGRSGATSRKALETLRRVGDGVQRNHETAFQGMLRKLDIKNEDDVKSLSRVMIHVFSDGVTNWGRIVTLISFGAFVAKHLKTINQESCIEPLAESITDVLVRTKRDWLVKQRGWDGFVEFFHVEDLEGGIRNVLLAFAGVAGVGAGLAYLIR
# Test: Binding affinity to induced myeloid leukemia cell differentiation protein 1 (unknown origin)
structure (smiles),measurement,value
CN(C)CC[C@H](CSc1ccccc1)Nc1ccc(S(=O)(=O)NC(=O)c2ccc(N3CCN(Cc4ccccc4-c4ccc(Cl)cc4)CC3)cc2)cc1[N+](=O)[O-] [ABT 737],Ki,> 1 nM

# From ChEMBL document CHEMBL3351920, “Biased and unbiased strategies to identify biologically active small molecules” (Bioorg Med Chem, 2014)
